## Antibody variant affinities, Ab-14 light chain, assay 1

Values reported by Engelhart et al. 2022, doi:10.1038/s41597-022-01779-4 (FLAb copy).

The target is the same throughout: PDVDLGDISGINAS, from the HR2 region of SARS-CoV-2 spike.

The variants keep the heavy chain, the linker and the frameworks of Ab-14 (scFv order VH, three GGGGS repeats, VL).
VH: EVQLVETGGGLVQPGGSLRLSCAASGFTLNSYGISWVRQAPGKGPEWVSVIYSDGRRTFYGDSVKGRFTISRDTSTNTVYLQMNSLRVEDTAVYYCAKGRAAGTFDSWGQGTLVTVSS
VL: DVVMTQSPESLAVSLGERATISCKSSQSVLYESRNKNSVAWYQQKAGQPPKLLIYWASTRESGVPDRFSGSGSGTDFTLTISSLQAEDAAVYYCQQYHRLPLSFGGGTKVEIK

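Phage display of a naive human antibody library on the peptide gave the parent. Variants in AAYL50 differ from the parent at up to three CDR positions; double and triple changes were sampled at random. Affinity was read by AlphaSeq, a pooled yeast mating assay with surface-displayed partners. After mating in shaken culture at 30 °C for 16 h, diploids were selected and their barcode pairs sequenced. The ratio of observed to expected reads was calibrated, replicate by replicate, on BCL2-family standards whose Kd was known from biolayer interferometry. The assay was run in three technical replicates.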

Positions count from residue 1 of the parent VL; S26D puts D in place of S.
Scale: log10 of Kd in nM, estimated from mating counts; low values are strong binders.
A mean of the replicates is given; it leaves out those without a signal.
"nd" marks a missing value. The strain was present, yet no cells mated with the target were sequenced in that replicate, which points to weak or no binding.
Order: sorted from the lowest average up, undetected variants last.
For reference, the parent read 0.65 as the reference entry and 1.68 as a member of this library.
As a blank, each scFv also met three strains without target: over library AAYL50, 18% of these pairings were detected, typically at 4.19 and seldom below 2.99.

| changes | replicates, log10 nM | mean, log10 nM |
|---|---|---|
| S26D/T59Q/H98S | 0.21 / 0.52 / 0.33 | 0.35 |
| S62Q/S103P | 0.12 / 0.44 / 0.55 | 0.37 |
| L30V/Y31S/L102C | 1.07 / 1.27 / 1.34 | 1.23 |
| R34S/N37M/P101T | 1.24 / 1.22 / 1.48 | 1.31 |
| K24Q/S25I/T59G | 0.52 / 2.24 / 1.44 | 1.40 |
| L30N/E32Y/H98C | 1.42 / 1.42 / 1.51 | 1.45 |
| Q27F/N37M/H98I | 1.09 / 1.80 / 1.89 | 1.59 |
| N35D/K36P/T59Y | 1.71 / 1.65 / 1.86 | 1.74 |
| S28Y/S33N/P101W | 1.59 / 1.62 / 2.40 | 1.87 |
| Y97L/H98E/L100H | 1.53 / 2.16 / 2.34 | 2.01 |
| V29W/K36A/L100Y | 2.21 / 2.02 / nd | 2.11 |
| S28E/N37R/S62C | 2.08 / 2.24 / 2.04 | 2.12 |
| S26P/T59S/S62F | 2.57 / 2.57 / 2.21 | 2.45 |
| S26Q/S58Y/Q95C | 3.01 / 2.36 / 2.66 | 2.68 |
| S25F/R34F/E61R | 2.98 / 2.50 / 2.76 | 2.75 |
| N35G/N37H/A57Q | 3.00 / 3.04 / 2.77 | 2.94 |
| S25Q/Y31K/Q96N | 2.71 / 2.98 / 3.13 | 2.94 |
| Q27F/V39A/L102C | nd / 3.09 / nd | 3.09 |
| E32D/S62F/Q95W | 3.14 / nd / 3.03 | 3.09 |
| S38M/Q95A/L100M | 3.60 / 3.03 / 2.68 | 3.10 |
| W56C/S58N/Q96G | 2.74 / 3.57 / 3.23 | 3.18 |
| Q27G/L30C/Y97L | nd / nd / 3.66 | 3.66 |
| L30M/E32M/L100M | 3.65 / 3.20 / 5.06 | 3.97 |
| N35T/A57C/H98R | 4.24 / 4.08 / 4.46 | 4.26 |
| V39A/A40L/R60P | 4.02 / nd / 4.52 | 4.27 |
| R34K/A40R/W56H | 4.61 / 3.50 / 5.00 | 4.37 |
| N37K/Q95M | nd / 4.21 / 4.55 | 4.38 |
| E32M/W56I/R60S | 4.70 / nd / 5.70 | 5.20 |
| S26I/Q96L | nd / nd / nd | nd |
| N37C/T59V/H98K | nd / nd / nd | nd |
| S58A/T59F/P101T | nd / nd / nd | nd |
| K24E/S26I/Y31R | nd / nd / nd | nd |
| V39E/Y97P | nd / nd / nd | nd |
| T59K/R60C/E61N | nd / nd / nd | nd |
| A40T/T59S/R60H | nd / nd / nd | nd |
| K24R/A57S/S58C | nd / nd / nd | nd |
| S33A/N35I/R60Q | nd / nd / nd | nd |
| K24A/V39E/S103H | nd / nd / nd | nd |
| V29F/S33I/Y97P | nd / nd / nd | nd |
| K24L/S26I/A40K | nd / nd / nd | nd |
| L30A/R34N/Q95R | nd / nd / nd | nd |
| L30Y/S58R/Q95N | nd / nd / nd | nd |

The first 3 entries again:

| changes | replicates, log10 nM | mean, log10 nM |
|---|---|---|
| S26D/T59Q/H98S | 0.21 / 0.52 / 0.33 | 0.35 |
| S62Q/S103P | 0.12 / 0.44 / 0.55 | 0.37 |
| L30V/Y31S/L102C | 1.07 / 1.27 / 1.34 | 1.23 |